The structures appear in SMILES notation. This is a selection; strong and weak results do not stand in their true shares. Results filed as inconclusive are left out. The source made the active and inactive calls. The calls were made as follows: active = hit-call score of the fitted dose curve at least 0.9, where 1 is the maximum; inconclusive = response in the unintended direction; inactive = score below 0.9.

The chains behind the UniProt entries cited, without tags or fusion partners. Where a name states a change or a piece, a line headed by the entry shows the natural chain unless it says otherwise.
UniProt Q92753: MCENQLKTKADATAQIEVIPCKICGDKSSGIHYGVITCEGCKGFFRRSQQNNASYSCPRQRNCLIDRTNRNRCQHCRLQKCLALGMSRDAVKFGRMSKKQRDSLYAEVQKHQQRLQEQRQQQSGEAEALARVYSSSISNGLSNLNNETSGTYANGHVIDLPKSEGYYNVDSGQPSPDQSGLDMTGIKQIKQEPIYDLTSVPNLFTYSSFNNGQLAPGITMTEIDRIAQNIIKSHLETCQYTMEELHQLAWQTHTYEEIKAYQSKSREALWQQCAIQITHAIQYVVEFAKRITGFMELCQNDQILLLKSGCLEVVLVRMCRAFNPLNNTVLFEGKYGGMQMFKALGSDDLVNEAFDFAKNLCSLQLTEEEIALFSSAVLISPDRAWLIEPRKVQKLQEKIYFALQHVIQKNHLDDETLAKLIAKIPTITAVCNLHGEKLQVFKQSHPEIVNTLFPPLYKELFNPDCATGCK

The assay addresses human RAR-related Orphan Receptor beta (RORb), RORB (gene 6096) (UniProt Q92753). Nature of the assay: ATG_RORb_TRANS: Attagene TRANS-FACTORIAL HepG2 Assay for human RAR-related Orphan Receptor beta (RORb) (AID 2283010). How it is done: ATG_TRANS is a cell-based, multiplexed-readout assay that uses HepG2, a human liver cell line, with measurements taken at 24 hours after chemical dosing in a 24-well plate.ATG_RORb_TRANS is one of 30 assay component(s) measured or calculated from the ATG_TRANS assay. It is designed to make measurements of mRNA induction, a form of inducible reporter, as detected with fluorescence intensity signals by Reverse transcription polymerase chain reaction (RT-PCR) and Capillary electrophoresis technology.Data from the assay component ATG_RORb_TRANS was analyzed into 1 assay endpoint. This assay endpoint, ATG_RORb_TRANS, was analyzed in the positive analysis fitting direction relative to DMSO as the negative control and baseline of activity. Using a type of inducible reporter, measures of mRNA for gain-of-signal activity can be used to understand the reporter gene at the transcription factor-level as they relate to the gene RORB. Furthermore, this assay endpoint can be referred to as a primary readout, because this assay has produced multiple assay endpoints where this one serves a reporter gene function. To generalize the intended target to other relatable targets, this assay endpoint is annotated to the nuclear receptor intended target family, where the subfamily is orphan.
Human liver HepG2 cells are transiently transfected with multiple reporter transcription units (MRTUs) in 6-well plates using FuGene 6 reagent (Roche; 3 ml FuGene/1 mg DNA). The MRTU constructs are regulated by a cis-regulating element (promoter). […] A major difference between the CIS and TRANS system is that in CIS activities of endogenous TFs are measured, whereas the TRANS assay evaluates changes in activities of exogenous, chimeric NR-Gal4 proteins. […] At the end of 24 hour incubation, total RNA was isolated using TriZol reagent (Invitrogen). The isolated RNA is then reverse-transcribed using oligo(dT) primer and Mo-MLV reverse transcriptase (Invitrogen) with DNAse I (Ambion) treatment for 30 min. The one-tenth of the produced cDNA was amplified by PCR using Taq DNA polymerase (Invitrogen) and two reporter sequence-specific primers. The PCR products were fluorescently labeled by primer extension with 6-arboxyfluorescein (6-FAM) 5'-labeled reporter sequence-specific primer (2 min at 95 C, 20 s at 68 C and 10 min at 72 C) and these products were digested with 5U of HpaI (New England Biolabs) for 2h at 37 C. The fragments were purified using Qiaquick PCR columns (Qiagen), analyzed on an ABI 3130xL genetic analyzer (Applied Biosystems) with peak positions identified by using a set of X-rhodamine (ROX)-labeled MapMarker1000 molecular weight standards (BioVentures). The raw capillary electrophoresis data was processed using Attagraph software (Attagene).
As for `O=C1C2CC=CCC2C(=O)N1SC(Cl)(Cl)C(Cl)Cl` (stereo not given), the compound was classed as inactive. The entry for `O=[p+]1oc2ccccc2c2ccccc21` (stereo not given) is “inactive”; for `O=[N+]([O-])c1ccc([N+](=O)[O-])cc1` it is “inactive”.

For the compound `Cc1cc([N+](=O)[O-])cc([N+](=O)[O-])c1O`, the call was inactive. In the case of `O=C(Cl)Oc1ccccc1` it was “inactive”; in that of `CCCCOP(OCCCC)OCCCC`, “inactive”; in that of `CC(C)OP(=S)(OC(C)C)SCCNS(=O)(=O)c1ccccc1`, “inactive”. As for `N#CSc1ccc([N+](=O)[O-])cc1[N+](=O)[O-]`, the outcome was inactive. The entry for `O=[P+](Oc1ccccc1)Oc1ccccc1` is “inactive”; for `CCCCC(CC)CO[P+](=O)OCC(CC)CCCC` (stereo not given) it is “inactive”.

The values are drawn from PubChem BioAssay (EPA / NIEHS).
